In patent US20210128740A1, “HDAC INHIBITORS-BASED ANTIBODY DRUG CONJUGATES (ADCs) AND USE IN THERAPY” (ALFASIGMA S.P.A., priority 2017, published 2021):

How the values were obtained:
[1] = tested on: ErbB1 and ErbB2 receptors; experiment: ADC binding to ErbB1 and ErbB2 receptors on tumor cells (FACS analysis); parameters: key: ++ is a score representing a high extent of binding or internalization; conditions: 10 μg/mL, 1 hour, 4° C.; tumor cell lines with different EGFR and ErbB2 expression
Description: Binding of the ADCs to ErbB1- and ErbB2-expressing tumor cells was confirmed by FACS analysis. Various tumor cell lines with different levels of EGFR and ErbB2 expression, including lung (A549, H1975), breast (SKBR3), colon (LS174T), ovarian (SKOV3), pancreas (CAPAN1 and MIAPACA-2) and stomach (N87) carcinoma cell lines, were used in the experiments. Cell pellets were incubated 1 hour, at 4° C., with 10 μg/mL antibodies or ADCs in PBS and then, after two washings in PBS, stained 1 hour, at 4° C., with mouse anti-human FITC-conjugated IgGs (BD Pharmingen). After two further washings, propidium iodide (PI) was added and cell-associated fluorescence analysis was performed by means of a FACScalibur (Becton Dickinson).

[2] = tested on: tumour cells (A549, H1975, SKBR3, LS174T, SKOV3, CAPAN1, N87); experiment: Internalization by tumour cells (HCS fluorescence imaging, Operetta); type: cell-based; parameters: key: ++ is a score representing a high extent of binding or internalization; conditions: 5 μg/mL, 3 hours at 37° C.
Description: Ability of ADCs to internalize within tumour cells, following their binding to cognate receptors, was assessed by means of HCS fluorescence imaging, through Operetta system (Perkin Elmer). Several tumour cell types, including lung (A549, H1975), breast (SKBR3), colon (LS174T), ovarian (SKOV3), pancreas (CAPAN1) and stomach (N87) carcinoma cell lines, were tested. Cells were seeded in 96-well microtiter plates (0.5-1×10^4 well) and then incubated with 5 μg/mL antibodies in culture medium, for 3 hours at 37° C. Following two washings, cells were then fixed with 4% formaldehyde in PBS, permeabilized with PBS 0.2% Tween-20 (PBS-T) and blocked with 2% BSA in PBS-T, and ultimately stained with FITC-conjugated mouse anti-human IgG (BD Pharmingen). Fluorescence was acquired and analyzed by means of the High Content Screening (HCS) system Operetta (Perkin Elmer). Cells were counterstained with Draq5 dye (Cell Signaling).

[3] = tested on: NCI-H1975 non-small cell lung carcinoma cells; experiment: Inhibition of tumor cell proliferation (CellTiter-Glo), NCI-H1975; type: cell-based; conditions: NCI-H1975, 6 days of treatment; read-out: IC50, antiproliferative activity
[4] = tested on: Calu-3 non-small cell lung carcinoma cells; experiment: Inhibition of tumor cell proliferation (CellTiter-Glo), Calu-3; type: cell-based; conditions: Calu-3, 6 days of treatment; read-out: IC50, antiproliferative activity
[5] = tested on: A549 non-small cell lung carcinoma; experiment: In vivo antitumor effect against s.c. A549 non-small cell lung cancer (Example 22); parameters: species or system mice; conditions: A549 NSCLC s.c.; 50 mg/kg i.p., q4dx4
Description: Nude mice were given a subcutaneous injection of 5×10^6 A549 non-small cell lung carcinoma cells suspended in 100 μL cell culture medium RPMI supplemented with 10% FBS. […] Tumor measurements and data as in Example 21.

[6] = tested on: A549-luc-C8 (A549luc) metastatic lung cancer; experiment: In vivo effect by aerosol against metastatic A549 non-small cell lung cancer (bioluminescence); parameters: species or system mice; conditions: A549 NSCLC i.v.; Aerosol q7dx4, 3.5 mL of 100 μg/mL solution
Description: Metastatic lung cancer was established by injecting 5×10^6 A549-luc-C8 (A549luc) cells into the tail vein of immunodeficient SCID/beige mice. […] Treatments were repeated according to the schedule q7dx4. Tumor bioluminescence imaging (BLI) was recorded at different time points by Xenogen IVIS Imaging System 200 (Perkin Elmer), 15 min after i.p. injection of luciferin (150 μg/mouse).

[7] = tested on: CAPAN-1 orthotopic pancreatic tumor; experiment: In vivo antitumor effect against orthotopic CAPAN-1 pancreas cancer; parameters: species or system mice; conditions: 40 mg/kg i.p., q4dx4
Excerpt: Capan-1 (1×10^6) cells were directly injected into pancreas of experimental groups.

[8] = tested on: PDX pancreas carcinoma PA5363; experiment: In vivo antitumor effect of ST8154AA1 against PDX pancreas cancer PA5363; parameters: species or system mice; conditions: PDX pancreas ca. PA5363 s.c.; 40 mg/kg i.p., q4dx5
Description: NOD-SCID mice (from Jackson Laboratories) were given a single subcutaneous injection of cells of the patient PA5363 P2 at 51000 cells/100 μL re-suspended in an equal volume of Cultrex 10× spheroid phormation ECM.
Tumor growth measurements and data as in Example 20.

SKOV-3 ovarian carcinoma = experiment: In vivo antitumor effect against orthotopically (i.p.) implanted SKOV-3 ovarian cancer, survival; parameters: species or system mice; conditions: for Antitumor efficacy: SKOV-3 i.p., 15 mg/kg i.p. q4dx4; for Increase in lifespan (%) vs vehicle: SKOV-3 ovarian ca. orthotopic, 15 mg/kg i.p., q4dx4
Description: Nude Nu/Nu female mice (from Charles River, Italy) were given a single intraperitoneally injection of 10×10^6 SKOV-3 ovarian carcinoma cells suspended in 200 μL cell culture medium RPMI supplemented with 10% FBS.

LS174T colon carcinoma = experiment: In vivo antitumor effect against s.c. LS-174T colon cancer; parameters: species or system mice; conditions: for Tumor inhibition (%) vs vehicle: LS174-T colon ca. s.c., 15 mg/kg i.p., q4dx4
Excerpt: Tumors were allowed to develop in Nu/Nu mice for 6 days after s.c. injection of 5×10^6 LS174T colon carcinoma cells. Lesion development and response to antibody treatment was monitored using a digital caliper.

[9] = tested on: PDX pancreas cancer PA5363; experiment: In vivo antitumor activity of ST8176AA1 against PDX pancreas cancer PA5363; parameters: species or system mice; conditions: for Tumor inhibition (%) vs vehicle: PDX pancreas ca. PA5363 s.c., 15 mg/kg i.p., q4dx5
Description: NOD-SCID mice (from Jackson Laboratories) were given a single subcutaneous injection of cells of the patient PA5363 P2 at 77000 cells/100 μL resuspended in an equal volume of Cultrex 10× spheroid phormation ECM.
Tumor measurements and data as in Example 20.

LS174-T colon carcinoma = experiment: In vivo efficacy against intraperitoneal LS174-T colon cancer, survival; conditions: 15 mg/kg i.p., q4dx4; for Increase in lifespan (%) vs vehicle: LS174-T colon ca. orthotopic (i.p.); for Median survival time (MST): LS174-T i.p.

For Cetuximab [reference compound], the “Binding (FACS analysis)” value [1] was “++”, the “Internalization (HCS Imaging)” value [2] was “++” and the IC50 [3] was greater than 500 nM. For the same substance, the IC50 [4] was greater than 500 nM, the “Tumor or Metastases Inhibition (%) vs vehicle” value [5] was 34% and the “Tumor or Metastases Inhibition (%) vs vehicle” value [6] was 50%. The “Tumor or Metastases Inhibition (%) vs vehicle” value ([7]; CAPAN-1 orthotopic in pancreas, tumor weight 90 days after tumor injection) was 49%, the “CR (mice with complete responses)” value ([7]; CAPAN-1 orthotopic, 40 mg/kg) was 2/10, P < 0.05 and the “Tumor or Metastases Inhibition (%) vs vehicle” value [8] was 25%.

In the case of ST8176AA1, the “Binding (FACS analysis)” value [1] is reported as “++”, the “Internalization (HCS Imaging)” value [2] is reported as “++” and the “Antitumor efficacy” value (SKOV-3 ovarian carcinoma) is reported as “efficacious”. The “Increase in lifespan (%) vs vehicle” value (SKOV-3 ovarian carcinoma) was 95%, the “Tumor inhibition (%) vs vehicle” value (LS174T colon carcinoma) was 25% and the “Antitumor efficacy” value (LS174T colon carcinoma; LS174T s.c., 15 mg/kg i.p. q4dx4) was “significantly inhibit the tumor growth of colon cancer”. The “Antitumor efficacy compared with Trastuzumab” value ([9]; PDX pancreas PA5363, 15 mg/kg ip q4dx5) was “significantly more efficacious than trastuzumab”, the “Tumor inhibition (%) vs vehicle” value [9] was 35% and the “Increase in lifespan (%) vs vehicle” value (LS174-T colon carcinoma) was 35%. The “Median survival time (MST)” value (LS174-T colon carcinoma) was 50 days.

For ST8177AA1, the “Binding (FACS analysis)” value [1] was “++” and the “Internalization (HCS Imaging)” value [2] was “++”.

ST8178AA1 was tested, and the “Binding (FACS analysis)” value [1] was “++” and the “Internalization (HCS Imaging)” value [2] was “++”.

ST8179AA1 was tested, and the “Binding (FACS analysis)” value [1] was “++” and the “Internalization (HCS Imaging)” value [2] was “++”.

In the case of ST8205AA1, the “Binding (FACS analysis)” value [1] is reported as “++” and the “Internalization (HCS Imaging)” value [2] is reported as “++”.

ST8218AA1 was tested, and the “Binding (FACS analysis)” value [1] was “++” and the “Internalization (HCS Imaging)” value [2] was “++”.

In the case of ST8219AA1, the “Binding (FACS analysis)” value [1] is reported as “++” and the “Internalization (HCS Imaging)” value [2] is reported as “++”.

For Trastuzumab [reference compound], the “Binding (FACS analysis)” value [1] was “++”, the “Internalization (HCS Imaging)” value [2] was “++” and the “Antitumor efficacy” value (SKOV-3 ovarian carcinoma) was “efficacious”. For the same substance, the “Increase in lifespan (%) vs vehicle” value (SKOV-3 ovarian carcinoma) was 72%, the “Tumor inhibition (%) vs vehicle” value (LS174T colon carcinoma) was 0% and the “Tumor inhibition (%) vs vehicle” value [9] was 0%. For the same substance, the “Increase in lifespan (%) vs vehicle” value (LS174-T colon carcinoma) was 0% and the “Median survival time (MST)” value (LS174-T colon carcinoma) was 37 days.
